{"sequences": {"note": "By UniProt entry, the sequences of proteins in these tests, tags left out. Residues count along the entry.", "UniProt P00797, 67-406 limits assumed": "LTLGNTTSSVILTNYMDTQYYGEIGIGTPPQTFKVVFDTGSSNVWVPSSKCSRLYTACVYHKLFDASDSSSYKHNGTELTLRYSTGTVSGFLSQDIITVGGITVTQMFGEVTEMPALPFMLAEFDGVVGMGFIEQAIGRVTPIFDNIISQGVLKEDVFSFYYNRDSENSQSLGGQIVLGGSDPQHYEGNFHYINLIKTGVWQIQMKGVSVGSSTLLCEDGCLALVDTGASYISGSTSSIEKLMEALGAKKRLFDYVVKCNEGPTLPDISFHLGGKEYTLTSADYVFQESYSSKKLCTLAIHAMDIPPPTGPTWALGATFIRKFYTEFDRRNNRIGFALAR"}, "source": "patent US5288851A", "about": "“Renin inhibitors, processes for preparing them, methods for using them, and compositions containing them” (Warner-Lambert Company, priority 1992, dated 1994)", "biological_target": "renin (Homo sapiens, UniProt P00797)", "test": "in vitro renin inhibitory activity, radioimmunoassay for angiotensin I", "type": "biochemical", "conditions": "renin incubated two hours at 37° with substrate angiotensinogen; angiotensin I by radioimmunoassay; molar concentration causing 50% inhibition", "data": [{"compound": "O=C(N[C@@H](CC1CCCCC1)C(=O)C(F)(F)C(=O)NCCN1CCOCC1)[C@H](Cc1c[nH]cn1)NC(=O)[C@H](Cc1ccccc1)NS(=O)(=O)N1CCOCC1", "values": [{"measurement": "IC50", "value": 1, "unit": "nM"}]}, {"compound": "CC(C)C[C@H](NC(=O)[C@H](Cc1c[nH]cn1)NC(=O)[C@H](Cc1ccccc1)NS(=O)(=O)N(C)C)[C@@H](O)CC(=O)NCCN1CCOCC1", "values": [{"measurement": "IC50", "value": 900, "unit": "nM"}]}, {"compound": "C=CC[C@H](NC(=O)[C@H](Cc1ccccc1)NS(=O)(=O)N1CCOCC1)C(=O)N[C@@H](CC(C)C)C(O)C(F)(F)C(=O)NCCN1CCOCC1", "note": "(stereo partly shown)", "values": [{"measurement": "IC50", "value": 11, "unit": "nM"}]}, {"compound": "COC(=O)C(NC(=O)[C@H](Cc1ccccc1)NS(=O)(=O)N1CCOCC1)C(=O)N[C@@H](CC(C)C)C(=O)C(F)(F)C(=O)NCCN1CCOCC1", "note": "(stereo partly shown)", "values": [{"measurement": "IC50", "value": 15, "unit": "nM"}]}, {"compound": "CCC(C)CNC(=O)C[C@H](O)[C@H](CC(C)C)NC(=O)[C@H](Cc1c[nH]cn1)NC(=O)[C@H](Cc1ccccc1)NC(=O)N1CCN(C(=O)OCc2ccccc2)CC1", "note": "(stereo partly shown)", "values": [{"measurement": "IC50", "value": 140, "unit": "nM"}]}, {"compound": "CC(C)C[C@H](NC(=O)[C@H](Cc1c[nH]cn1)NC(=O)[C@H](Cc1ccccc1)NS(=O)(=O)N1CCOCC1)[C@@H](O)CC(=O)NCCN1CCOCC1", "values": [{"measurement": "IC50", "value": 300, "unit": "nM"}]}, {"compound": "CC[C@H](C)CNC(=O)C[C@H](O)[C@H](CC(C)C)NC(=O)[C@H](Cc1cnc[nH]1)NC(=O)[C@H](Cc1ccccc1)NS(=O)(=O)N1CCNCC1", "values": [{"measurement": "IC50", "value": 350, "unit": "nM"}]}, {"compound": "COC(=O)C(NC(=O)[C@H](Cc1ccccc1)NS(=O)(=O)N1CCOCC1)C(=O)N[C@@H](CC(C)C)C(O)C(F)(F)C(=O)NCCN1CCOCC1", "note": "(stereo partly shown)", "values": [{"measurement": "IC50", "value": 40, "unit": "nM"}]}, {"compound": "CCC(C)CNC(=O)C[C@H](O)[C@H](CC(C)C)NC(=O)[C@H](Cc1cnc[nH]1)NC(=O)[C@H](Cc1ccccc1)NS(=O)(=O)N1CCOCC1", "note": "(stereo partly shown)", "values": [{"measurement": "IC50", "value": 20, "unit": "nM"}]}, {"compound": "CCC(C)CNC(=O)C[C@H](O)[C@H](CC(C)C)NC(=O)[C@H](Cc1cnc[nH]1)NC(=O)[C@H](Cc1ccccc1)NC(=O)N1CCCC1", "note": "(stereo partly shown)", "values": [{"measurement": "IC50", "value": 490, "unit": "nM"}]}, {"compound": "CC[C@H](C)CNC(=O)C[C@H](O)[C@H](CC(C)C)NC(=O)[C@H](Cc1cnc[nH]1)NC(=O)[C@H](Cc1ccccc1)NS(=O)(=O)N1CCN(C)CC1", "values": [{"measurement": "IC50", "value": 150, "unit": "nM"}]}, {"compound": "C=CC[C@H](NC(=O)[C@H](Cc1ccccc1)NS(=O)(=O)N1CCOCC1)C(=O)N[C@@H](CC(C)C)C(=O)C(F)(F)C(=O)NCCN1CCOCC1", "values": [{"measurement": "IC50", "value": 6, "unit": "nM"}]}, {"compound": "CNC(=S)NCCCC[C@H](NC(=O)[C@H](Cc1ccccc1)NS(=O)(=O)N(C)C)C(=O)N[C@@H](CC1CCCCC1)[C@@H](O)CC(=O)NCCN1CCOCC1", "values": [{"measurement": "IC50", "value": 20, "unit": "nM"}]}, {"compound": "CCC(C)CNC(=O)C[C@H](O)[C@H](CC(C)C)NC(=O)[C@H](CC#N)NC(=O)[C@H](Cc1ccccc1)NS(=O)(=O)N1CCOCC1", "note": "(stereo partly shown)", "values": [{"measurement": "IC50", "value": 25, "unit": "nM"}]}, {"compound": "CCC(C)CNC(=O)C[C@H](O)[C@@H](NC(=O)[C@H](Cc1c[nH]cn1)NC(=O)[C@H](Cc1ccccc1)NS(=O)(=O)N1CCOCC1)C1CCCCC1", "note": "(stereo partly shown)", "values": [{"measurement": "IC50", "value": 4.8, "unit": "nM"}]}, {"compound": "CCC(C)CNC(=O)C[C@H](O)[C@H](CC(C)C)NC(=O)C(NC(=O)[C@H](Cc1ccccc1)NS(=O)(=O)N(C)C)C(=O)OC", "note": "(stereo partly shown)", "values": [{"measurement": "IC50", "value": 25, "unit": "nM"}]}, {"compound": "C=CC[C@H](NC(=O)[C@H](Cc1ccccc1)NS(=O)(=O)N1CCOCC1)C(=O)N[C@@H](CC1CCCCC1)C(=O)C(F)(F)C(=O)NCCN1CCOCC1", "values": [{"measurement": "IC50", "value": 0.9, "unit": "nM"}]}, {"compound": "CC(=O)NCCCC[C@H](NC(=O)[C@H](Cc1ccccc1)NS(=O)(=O)N1CCOCC1)C(=O)N[C@@H](CC(C)C)C(O)C(F)(F)C(=O)NCCN1CCOCC1", "note": "(stereo partly shown)", "values": [{"measurement": "IC50", "value": 3000, "unit": "nM"}]}, {"compound": "CCC(C)CNC(=O)C[C@H](O)[C@H](CC(C)C)NC(=O)[C@H](Cc1cnc[nH]1)NC(=O)[C@H](Cc1ccccc1)NC(=O)N1CCOCC1", "note": "(stereo partly shown)", "values": [{"measurement": "IC50", "value": 330, "unit": "nM"}]}, {"compound": "CN(C)S(=O)(=O)N[C@@H](Cc1ccccc1)C(=O)N[C@@H](Cc1c[nH]cn1)C(=O)N[C@@H](CC1CCCCC1)[C@@H](O)CC(=O)NCCN1CCOCC1", "values": [{"measurement": "IC50", "value": 20, "unit": "nM"}]}, {"compound": "CCC(C)CNC(=O)C[C@H](O)[C@H](CC(C)C)NC(=O)[C@H](Cc1cnc[nH]1)NC(=O)[C@H](Cc1ccccc1)NC(=O)CN1CCOCC1", "note": "(stereo partly shown)", "values": [{"measurement": "IC50", "value": 250, "unit": "nM"}]}, {"compound": "CCC(C)CNC(=O)C[C@H](O)[C@H](CC(C)C)NC(=O)[C@H](Cc1cnc[nH]1)NC(=O)[C@H](Cc1ccccc1)NS(=O)(=O)N1CCCC1", "note": "(stereo partly shown)", "values": [{"measurement": "IC50", "value": 58, "unit": "nM"}]}]}
